Amino acid sequences for entries named in this document (tags omitted). A change or cut given only in a name is not applied to a line headed by its entry.
UniProt P43490: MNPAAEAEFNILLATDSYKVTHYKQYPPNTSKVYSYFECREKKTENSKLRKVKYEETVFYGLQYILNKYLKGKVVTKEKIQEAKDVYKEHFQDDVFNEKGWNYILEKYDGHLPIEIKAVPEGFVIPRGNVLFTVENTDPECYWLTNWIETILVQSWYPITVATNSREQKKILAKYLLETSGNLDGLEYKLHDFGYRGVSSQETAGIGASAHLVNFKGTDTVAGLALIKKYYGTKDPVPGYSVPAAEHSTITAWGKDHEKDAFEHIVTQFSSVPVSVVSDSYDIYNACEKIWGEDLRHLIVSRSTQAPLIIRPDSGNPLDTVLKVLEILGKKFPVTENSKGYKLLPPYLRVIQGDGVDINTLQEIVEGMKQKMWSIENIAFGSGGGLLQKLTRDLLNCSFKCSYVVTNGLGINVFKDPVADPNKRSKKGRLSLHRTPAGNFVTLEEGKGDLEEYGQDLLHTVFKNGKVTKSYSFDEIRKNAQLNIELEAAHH

The target in the test is NAMPT (Homo sapiens (Human), UniProt P43490). Kind of test: Biochemical inhibition assay (NAMPT enzymatic reaction, NMN quantified by mass spectrometry).
Usually IC50 stands for the concentration that inhibits the measured activity by half. Higher therefore signals weaker potency. Compound `CC(C)(C)c1cc(C(=O)N2CCC3(CC2)CC3CNC(=O)c2cc3ccncc3o2)[nH]n1` (stereo not shown) [Example 322, N-[[6-(3-tert-butyl-1H-pyrazole-5-carbonyl)-6-azaspiro[2.5]octan-2-yl]methyl]furo[2,3-c]pyridine-2-carboxamide] gave an IC50 of 28.2 nM.
`CC(C)c1cc(C(=O)N2CCC3(CC2)CC3CNC(=O)c2cc3ccncc3o2)n[nH]1` (stereo not shown) [Example 323, N-[[6-(5-isopropyl-1H-pyrazole-3-carbonyl)-6-azaspiro[2.5]octan-2-yl]methyl]furo[2,3-c]pyridine-2-carboxamide] had an IC50 of 613 nM.
The result for `CC(C)c1n[nH]cc1C(=O)N1CCC2(CC1)CC2CNC(=O)c1cc2ccncc2o1` (stereo not shown) [Example 324, N-[[6-(3-isopropyl-1H-pyrazole-4-carbonyl)-6-azaspiro[2.5]octan-2-yl]methyl]furo[2,3-c]pyridine-2-carboxamide] reads 137 nM.
On to `CC(C)n1nccc1C(=O)N1CCC2(CC1)CC2CNC(=O)c1cc2ccncc2o1` (stereo not shown) [Example 325, N-[[6-(2-isopropylpyrazole-3-carbonyl)-6-azaspiro[2.5]octan-2-yl]methy]furo[2,3-c]pyridine-2-carboxamide], for which the IC50 was 69.8 nM.
The result for `CCc1cc(C(=O)N2CCC3(CC2)CC3CNC(=O)c2cc3ccncc3o2)n(C)n1` (stereo not shown) [Example 326, N-[[6-(5-ethyl-2-methyl-pyrazole-3-carbonyl)-6-azaspiro[2.5]octan-2-yl]methyl]furo[2,3-c]pyridine-2-carboxamide] reads 33.9 nM; that for `O=C(NCC1CC12CCN(C(=O)c1cc(C3CC3)on1)CC2)c1cc2ccncc2o1` (stereo not shown) [Example 327, N-[[6-(5-cyclopropylisoxazole-3-carbonyl)-6-azaspiro[2.5]octan-2-yl]methyl]furo[2,3-c]pyridine-2-carboxamide], 159 nM.
The result for `O=C(NCC1CC12CCN(C(=O)c1cnoc1C1CC1)CC2)c1cc2ccncc2o1` (stereo not shown) [Example 328, N-[[6-(5-cyclopropylisoxazole-4-carbonyl)-6-azaspiro[2.5]octan-2-yl]methyl]furo[2,3-c]pyridine-2-carboxamide] reads 40 nM.
As to `Cc1n[nH]c(C)c1C(=O)N1CCC2(CC1)CC2CNC(=O)c1cc2ccncc2o1` (stereo not shown) [Example 329, N-[[6-(3,5-dimethyl-1H-pyrazole-4-carbonyl)-6-azaspiro[2.5]octan-2-yl]methyl]furo[2,3-c]pyridine-2-carboxamide], the IC50 is 50 nM.
For the compound `Cc1c(C(=O)N2CCC3(CC2)CC3CNC(=O)c2cc3ccncc3o2)cnn1C` (stereo not shown) [Example 330, N-[[6-(1,5-dmiethylpyrazole-4-carbonyl)-6-azaspiro[2.5]octan-2-yl]methyl]furo[2,3-c]pyridine-2-carboxamide], the IC50 was found to be 80.6 nM.
Under `Cc1ncoc1C(=O)N1CCC2(CC1)CC2CNC(=O)c1cc2ccncc2o1` (stereo not shown) [Example 331, N-[[6-(4-methyloxazole-5-carbonyl)-6-azaspiro[2.5]octan-2-yl]methyl]furo[2,3-c]pyridine-2-carboxamide] stands 24.3 nM; under `O=C(NCC1CC12CCN(C(=O)c1c[nH]nc1C1CC1)CC2)c1cc2ccncc2o1` (stereo not shown) [Example 332, N-[[6-(3-cyclopropyl-1H-pyrazole-4-carbonyl)-6-azaspiro[2.5]oetan-2-yl]methyl]furo[2,3-c]pyridine-2-carboxamide], 16.9 nM; under `Cc1nc(C(=O)N2CCC3(CC2)CC3CNC(=O)c2cc3ccncc3o2)c(C)o1` (stereo not shown) [Example 334, N-[[6-(2,5-dimethyloxazole-4-carbonyl)-6-azaspiro[2.5]octan-2-yl]methyl]furo[2,3-c]pyridine-2-carboxamide], 59.9 nM.
The result for `Cc1nn(C)cc1C(=O)N1CCC2(CC1)CC2CNC(=O)c1cc2ccncc2o1` (stereo not shown) [Example 335, N-[[6-(1,3-dimethylpyrazole-4-carbonyl)-6-azaspiro[2.5]octan-2-yl]methyl]furo[2,3-c]pyridine-2-carboxamide] reads 320 nM; that for `O=C(NCC1CC12CCN(C(=O)c1cnco1)CC2)c1cc2ccncc2o1` (stereo not shown) [Example 336, N-[[6-(oxazole-5-carbonyl)-6-azaspiro[2.5]octan-2-yl]methyl]furo[2,3-c]pyridine-2-carboxamide], 37.8 nM.
`O=C(NCC1CC12CCN(C(=O)c1cnoc1)CC2)c1cc2ccncc2o1` (stereo not shown) [Example 337, N-[[6-(isoxazole-4-carbonyl)-6-azaspiro[2.5]octan-2-yl]methyl]furo[2,3-c]pyridine-2-carboxamide]: the IC50 came out at 27.5 nM.
Compound `O=C(NCC1CC12CCN(C(=O)c1ncc[nH]1)CC2)c1cc2ccncc2o1` (stereo not shown) [Example 338, N-[[6-(1H-imidazole-2-carbonyl)-6-azaspiro[2.5]octan-2-yl]methyl]furo[2,3-c]pyridine-2-carboxamide] returned a half-inhibitory concentration (IC50) of 169 nM.
With `CN1CCN(c2ccc(C(=O)N3CCC4(CC3)CC4CNC(=O)c3cc4ccncc4o3)cc2)CC1` (stereo not shown) [Example 339, N-[[6-[4-(4-Methylpiperazin-1-yl)benzoyl]-6-azaspiro[2.5]octan-2-yl]methyl]furo[2,3-c]pyridine-2-carboxamide], the IC50 came out at 13.8 nM.
Compound `O=C(NCC1CC12CCN(C(=O)c1cnc3[nH]cnc3c1)CC2)c1cc2ccncc2o1` (stereo not shown) [Example 340, N-[[6-(3H-imidazo[4,5-b]pyridine-6-carbonyl)-6-azaspiro[2.5]octan-2-yl]methyl]furo[2,3-c]pyridine-2-carboxamide] came in with an IC50 of 66.3 nM.
`Cc1ccc(C(=O)N2CCC3(CC2)CC3CNC(=O)c2cc3ccncc3o2)nc1` (stereo not shown) [Example 341, N-[[6-(5-methylpyridine-2-carbonyl)-6-azaspiro[2.5]octan-2-yl)methyl]furo[2,3-c]pyridine-2-carboxamide] returned an IC50 of 162 nM.
Turning to `CN1CCN(Cc2cccc(C(=O)N3CCC4(CC3)CC4CNC(=O)c3cc4cnccc4[nH]3)c2)CC1` (stereo not shown) [Example 344, N-[[6-[3-[(4-methylpiperazin-1-yl)methyl]benzoyl]-6-azaspiro[2.5]octan-2-yl]methyl]-1H-pyrrolo[3,2-c]pyridine-2-carboxamide], it took 97.3 nM to reach half-maximal inhibition (IC50).
In turn, `CC1(C)CC1C(=O)N1CCC2(CC1)CC2CNC(=O)c1cc2cnccc2[nH]1` (stereo not shown) [Example 348, N-[[6-(2,2-dimethylcyclopropanecarbonyl)-6-azaspiro[2.5]octan-2-yl]methyl]-1H-pyrrolo[3,2-c]pyridine-2-carboxamide] returned an IC50 of 102 nM.
The result for `O=C(NCC1CC12CCN(C(=O)c1cc(C3CC3)n[nH]1)CC2)N1Cc2ccncc2C1` (stereo not shown) [Example 353, N-[[6-(3-cyclopropyl-1H-pyrazole-5-carbonyl)-6-azaspiro[2.5]octan-2-yl]methyl]-1,3-dihydropyrrolo[3,4-c]pyridine-2-carboxamide] reads 23.8 nM; that for `Cn1cc(-c2ccno2)c(C(=O)N2CCC3(CC2)CC3CNC(=O)N2Cc3ccncc3C2)n1` (stereo not shown) [Example 354, N-[[6-(4-isoxazol-5-yl-1-methyl-pyrazole-3-carbonyl)-6-azaspiro[2.5]octan-2-yl]methyl]-1,3-dihydropyrrolo[3,4-c]pyridine-2-carboxamide], 28.8 nM; that for `N#Cc1ccccc1CC(=O)N1CCC2(CC1)CC2CNC(=O)N1Cc2ccncc2C1` (stereo not shown) [Example 357, N-[[6-[2-(2-cyanophenyl)acetyl]-6-azaspiro[2.5]octan-2-yl]methyl]-1,3-dihydropyrrolo[3,4-c]pyridine-2-carboxamide], 23.6 nM.
In the case of `CC1(NC(=O)N2CCC3(CC2)CC3CNC(=O)N2Cc3ccncc3C2)COC1` (stereo not shown) [Example 361, N-[[6-[(3-methyloxetan-3-yl)carbamoyl]-6-azaspiro[2.5]octan-2-yl]methyl]-1,3-dihydropyrrolo[3,4-c]pyridine-2-carboxamide], half-maximal inhibition (IC50) required 35.7 nM.
For `CN1CCN(c2ccc(C(=O)N3CCC4(CC3)CC4CNC(=O)c3cc4cnccc4[nH]3)cc2)CC1` (stereo not shown) [Example 363, N-[[6-[4-(4-methylpiperazin-1-yl)benzoyl]-6-azaspiro[2.5]octan-2-yl]methyl]-1H-pyrrolo[3,2-c]pyridine-2-carboxamide], half-maximal inhibition (IC50) required 50.5 nM.
In turn, `CC1(C)CC1C(=O)N1CCC2(CC1)CC2CNC(=O)c1cc2cnccc2[nH]1` (stereo not shown) [Example 364, N-[[6-(2,2-dimethylcyclopropanecarbonyl)-6-azaspiro[2.5]octan-2-yl]methyl]-1H-pyrrolo[3,2-c]pyridine-2-carboxamide] registered an IC50 of 365 nM.
With `O=C(NCC1CC12CCN(C(=O)c1cc(C3CC3)n[nH]1)CC2)c1cc2cnccc2[nH]1` (stereo not shown) [Example 368, N-[[6-(3-cyclopropyl-1H-pyrazole-5-carbonyl)-6-azaspiro[2.5]octan-2-yl]methyl]-1H-pyrrolo[3,2-c]pyridine-2-carboxamide], the IC50 came out at 170 nM.
Compound `Cn1cc(-c2ccno2)c(C(=O)N2CCC3(CC2)CC3CNC(=O)c2cc3cnccc3[nH]2)n1` (stereo not shown) [Example 369, N-[[6-(4-isoxazol-5-yl-1-methyl-pyrazole-3-carbonyl)-6-azaspiro[2.5]octan-2-yl]methyl]-1H-pyrrolo[3,2-c]pyridine-2-carboxamide] displayed an IC50 of 167 nM.
Under `Cc1nc(C)c(C(=O)N2CCC3(CC2)CC3CNC(=O)c2cc3cnccc3[nH]2)o1` (stereo not shown) [Example 370, N-[[6-(2,4-dimethyloxazole-5-carbonyl)-6-azaspiro[2.5]octan-2-yl]methyl]-1H-pyrrolo[3,2-c]pyridine 2-carboxamide] stands 169 nM.
`CC1(OC(=O)N2CCC3(CC2)CC3CNC(=O)N2Cc3ccncc3C2)CCOC1` (stereo not shown) [Example 375]: the IC50 is 8.88 nM.
Under `CC(C)(C)CS(=O)(=O)N1CCC2(CC1)CC2CNC(=O)c1cc2ccncc2o1` (stereo not shown) [Example 378, N-[[6-(2,2-dimethylpropylsulfonyl)-6-azaspiro[2.5]octan-2-yl]methyl]furo[2,3-c]pyridine-2-carboxamide] stands 241 nM; under `CC(C)(C)CS(=O)(=O)N1CCC2(CC1)CC2CNC(=O)c1cc2cnccc2[nH]1` (stereo not shown) [Example 379, N-[[6-(2,2-dimethylpropylsulfonyl)-6-azaspiro[2.5]octan-2-yl]methyl]-1H-pyrrolo[3,2-c]pyridine-2-carboxamide], 1470 nM; under `Cc1nc(C)c(C(=O)N2CCC3(CC2)CC3CNC(=O)c2cc3ccncc3o2)o1` (stereo not shown) [Example 385, N-[[6-(2,4-dimethyloxazole-5-carbonyl)-6-azaspiro[2.5]octan-2-yl]methyl]furo[2,3-c]pyridine-2-carboxamide], 82.4 nM.

Values taken from patent US10730889B2, “Amido spirocyclic amide and sulfonamide derivatives” (Forma TM, LLC, priority 2012, dated 2020).
